Assay type: physicochemical
Settings: 2,4-D isopropylamine salt 300 g/l
Description: In the form of its amine salts, 2,4-dichlorophenoxyacetic acid tends to crystallize out of concentrated solutions. It is state of the art to use an approximately 5% addition of NMP in order to prevent crystallization. In the present example the isopropylamine salt of 2,4-dichlorophenoxyacetic acid was used, 2,4-D IPA for short.
Concentrated aqueous solutions of 2,4-D in isopropylamine salt form (350 g/l) were admixed with quantities of demineralized water and of the corresponding solvent addition such that the concentration of 2,4-D isopropylamine salt was 300 g/l and that of the solvent under test was 5% v/v. Then the external appearance, instantaneously (see column 2 of Table 5) and after storage at 0° C. (see column 3 of Table 5), and also the external appearance of a 5% (v/v) dilution in water (standard water according to CIPAC method D, containing 500 ppm CaCO3), were observed and recorded (see columns 4 and 5 of Table 5). Particular emphasis was placed on any crystal formation.

[1] = solvent 5% by volume, 5% dilution in water, 24 hours, 30° C.

External appearance of dilution [5% in water] (solvent 5% by volume, 5% (v/v) dilution in water, 500 ppm CaCO3): clear
Crystal formation in dilution [5% in water; 24 hours, 30° C.] [1]: <1%
External appearance of dilution [5% in water; 24 hours, 30° C.] [1]: turbid solution,
External appearance of formulation [25° C.; on day of preparation] (solvent addition 5% by volume, 25° C., day of preparation): clear solution
External appearance of formulation [after 48 hours at 0° C.] (solvent addition 5% by volume, after 48 hours at 0° C.): clear solution
SMILES: CCCCOCCOCCOCCCC [Diethylene glycol dibutyl ether]

Source: patent publication US20090062120A1, “Agrochemical Composition” (priority 2005, published 2009)
